We go through 74 compounds from PubChem BioAssay AID504333 (National Center for Advancing Translational Sciences (NCATS), 2011).

Protein sequences, listed by entry. Tags and fused reporters are not part of them.
UniProt Q9UIF8, whole entry: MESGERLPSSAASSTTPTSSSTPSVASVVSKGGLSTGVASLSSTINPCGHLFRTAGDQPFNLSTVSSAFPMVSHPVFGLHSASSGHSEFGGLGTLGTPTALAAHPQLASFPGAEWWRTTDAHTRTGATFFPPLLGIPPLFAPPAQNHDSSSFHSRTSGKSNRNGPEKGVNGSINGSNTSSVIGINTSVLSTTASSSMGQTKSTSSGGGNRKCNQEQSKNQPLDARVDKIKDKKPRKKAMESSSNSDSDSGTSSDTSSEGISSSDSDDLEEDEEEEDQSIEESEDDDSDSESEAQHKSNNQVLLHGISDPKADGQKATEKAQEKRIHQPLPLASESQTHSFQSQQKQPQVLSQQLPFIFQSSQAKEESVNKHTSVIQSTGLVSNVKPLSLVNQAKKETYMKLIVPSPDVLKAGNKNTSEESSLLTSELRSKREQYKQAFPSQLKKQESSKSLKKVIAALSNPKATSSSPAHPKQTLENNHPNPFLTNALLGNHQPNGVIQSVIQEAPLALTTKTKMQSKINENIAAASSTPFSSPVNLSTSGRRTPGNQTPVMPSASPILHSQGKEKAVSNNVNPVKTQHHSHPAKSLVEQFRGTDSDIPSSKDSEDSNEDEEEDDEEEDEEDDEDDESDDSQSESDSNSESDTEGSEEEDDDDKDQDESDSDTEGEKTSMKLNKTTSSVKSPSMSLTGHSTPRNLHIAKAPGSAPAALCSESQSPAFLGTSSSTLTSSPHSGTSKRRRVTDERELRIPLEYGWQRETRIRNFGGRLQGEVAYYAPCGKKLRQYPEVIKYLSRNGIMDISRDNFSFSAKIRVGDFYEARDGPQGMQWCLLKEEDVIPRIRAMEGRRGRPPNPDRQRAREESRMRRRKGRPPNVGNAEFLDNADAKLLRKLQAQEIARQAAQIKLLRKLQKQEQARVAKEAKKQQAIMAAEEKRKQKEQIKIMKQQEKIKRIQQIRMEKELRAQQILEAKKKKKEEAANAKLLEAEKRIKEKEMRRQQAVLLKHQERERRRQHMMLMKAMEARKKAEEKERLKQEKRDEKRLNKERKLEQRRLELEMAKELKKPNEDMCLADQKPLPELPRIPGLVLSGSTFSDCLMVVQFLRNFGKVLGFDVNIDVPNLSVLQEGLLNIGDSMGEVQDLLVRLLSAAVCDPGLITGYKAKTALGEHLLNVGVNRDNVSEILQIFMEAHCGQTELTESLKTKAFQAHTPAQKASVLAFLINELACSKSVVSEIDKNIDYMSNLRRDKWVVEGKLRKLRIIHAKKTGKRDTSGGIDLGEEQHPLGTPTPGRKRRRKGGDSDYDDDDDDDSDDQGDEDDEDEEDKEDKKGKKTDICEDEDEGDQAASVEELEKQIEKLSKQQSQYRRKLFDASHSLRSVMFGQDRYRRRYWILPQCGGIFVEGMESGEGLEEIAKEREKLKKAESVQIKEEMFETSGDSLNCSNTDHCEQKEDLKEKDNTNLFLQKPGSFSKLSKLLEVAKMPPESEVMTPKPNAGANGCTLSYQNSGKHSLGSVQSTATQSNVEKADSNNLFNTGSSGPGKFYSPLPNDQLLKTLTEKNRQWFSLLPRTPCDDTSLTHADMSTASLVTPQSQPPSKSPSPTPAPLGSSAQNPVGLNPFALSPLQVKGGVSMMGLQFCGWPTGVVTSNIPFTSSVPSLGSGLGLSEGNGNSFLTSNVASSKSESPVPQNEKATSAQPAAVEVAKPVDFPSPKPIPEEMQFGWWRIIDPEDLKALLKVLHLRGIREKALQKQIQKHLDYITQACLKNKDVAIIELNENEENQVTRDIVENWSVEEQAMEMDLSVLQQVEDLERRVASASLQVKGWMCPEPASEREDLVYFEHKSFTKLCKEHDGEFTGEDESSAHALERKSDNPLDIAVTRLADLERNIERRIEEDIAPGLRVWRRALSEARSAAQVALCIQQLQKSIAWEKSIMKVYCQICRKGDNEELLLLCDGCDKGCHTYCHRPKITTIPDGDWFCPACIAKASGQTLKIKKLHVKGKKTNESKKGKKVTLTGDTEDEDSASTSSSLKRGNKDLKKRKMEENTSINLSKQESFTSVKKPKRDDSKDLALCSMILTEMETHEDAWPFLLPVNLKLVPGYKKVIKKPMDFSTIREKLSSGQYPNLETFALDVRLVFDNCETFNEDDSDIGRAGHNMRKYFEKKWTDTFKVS

Only a part is listed here, and it is no random draw. Records with an inconclusive call do not appear. Activity calls are given as the source filed them. The call rests on the fitted dose curve; in most records, active means well fitted inhibition curve with a large enough effect; inconclusive means small, poorly fitted or top-dose-only effect; inactive means no such curve, though single readings can be large or run the other way.
On the % scale 0 is the no-effect control and ±100 the full control effect; potency means the concentration at half of the fitted maximal effect.

The target in the assay is Bromodomain adjacent to zinc finger domain protein 2B (Homo sapiens) (UniProt Q9UIF8). Description: qHTS Assay for Inhibitors of BAZ2B. Further: nearly all actives have a fitted effect of over 60% in size. Particulars: AlphaScreen BAZ2B-H3K14Ac peptide displacement; series mostly up to 114 µM; activity change, negative = inhibition: at the top concentration. (In general: In qHTS, concentration-response curves come from the screen itself.)
With `O=C(OCCCN1CCCC1)C(O)(c1ccccc1)C1CCCCC1` (centres undefined), the “activity change, negative = inhibition” value was inactive: 1.19%.
As to `COc1ccccc1OP(C)(=O)Nc1c(C)n(C)n(-c2ccccc2)c1=O` (centres undefined), the “activity change, negative = inhibition” value is inactive: 1.05%.
On the same count and under the same terms, then `CCc1ccc(OP(C)(=O)Nc2cccnc2)cc1` (centres undefined), with inactive: -0.844%; and `CP(=O)(Oc1ccccc1)N1CCOC1=O` (centres undefined), with inactive: 5.07%.
The same measure, in the same setting: then `COc1ccc(OP(C)(=O)Nc2ccc(Br)cc2)cc1` (centres undefined), with inactive: 7.95%.
Same read-out and setting: as for `CCN(CC)CC(O)COC(=O)C(O)(c1ccccc1)C1CCCCC1` (centres undefined), the figure is inactive: -2.95%; as for `CN(C)C(=O)c1c([N+](=O)[O-])cc([N+](=O)[O-])cc1[N+](=O)[O-]`, inactive: -14.1%.
On to `COc1ccccc1OP(C)(=O)Nc1ccccc1Br` (centres undefined), for which the “activity change, negative = inhibition” value is inactive: 10.5%.
Same read-out and setting: as for `CP(=O)(Nc1ccc(Cl)cc1)Oc1ccc(F)cc1` (centres undefined), the figure is inactive: 9.65%.
The same measure, in the same setting: then `CCOC(=O)c1ccc(NP(C)(=O)Oc2ccc(Cl)cc2)cc1` (centres undefined), with inactive: 0.381%.
As to `CP(=O)(OC12CC3CC(CC(C3)C1)C2)OC12CC3CC(CC(C3)C1)C2`, the “activity change, negative = inhibition” value was inactive: 2.12%.
Still for that read-out and setting: then `COc1ccccc1OP(C)(=O)Nc1ccc(C)c(C)c1` (centres undefined), with inactive: 6.91%; and `COc1ccc(OP(C)(=O)Nc2ccccc2Br)cc1` (centres undefined), with inactive: 10.3%; and `Cc1cc(C)cc(OP(C)(=O)Nc2cccc(C(F)(F)F)c2)c1` (centres undefined), with inactive: 3.84%.
On the same count and under the same terms, then `CP(=O)(OCCOc1ccccc1)OCCOc1ccccc1`, with inactive: 9.4%.
On the same count and under the same terms, then `CP(=O)(Nc1ccc(Cl)cc1Cl)Oc1ccccc1` (centres undefined), with inactive: 3.43%; and `Cc1nc2ccc3ccccc3c2o1.O=[N+]([O-])c1cc([N+](=O)[O-])c(O)c([N+](=O)[O-])c1`, with inactive: 1.22%.
As for `COc1ccc(OP(C)(=O)Nc2ccccn2)cc1` (centres undefined), the “activity change, negative = inhibition” value was inactive: 2.38%.
Turning to `CN(C)CCOC(=O)C(O)(c1ccccc1)C1CCCC1` (centres undefined), the “activity change, negative = inhibition” value was inactive: 5.5%.
Same read-out and setting: then `COc1ccccc1OP(C)(=O)Nc1ccc(Br)cc1` (centres undefined), with inactive: 0.5%.
Same read-out and setting: as for `COc1ccccc1OP(C)(=O)Nc1ccc(C)cc1C` (centres undefined), the figure is inactive: 1.56%; as for `CP(=O)(Nc1ccccn1)Oc1ccccc1` (centres undefined), inactive: 8.17%; as for `CCc1ccc(OP(C)(=O)O)cc1`, inactive: -5.72%.
On to `Cc1c(NP(C)(=O)Oc2ccc(C(C)C)cc2)c(=O)n(-c2ccccc2)n1C` (centres undefined), for which the “activity change, negative = inhibition” value was inactive: 8.01%.
In the case of `CP(=O)(Nc1ccccc1F)Oc1ccccc1` (centres undefined), the “activity change, negative = inhibition” value was inactive: 12.4%.
On the same count and under the same terms, then `CC(C)c1ccc(OP(C)(=O)Nc2ccc(SC(F)(F)F)cc2)cc1` (centres undefined), with inactive: -3.1%; and `O=C(OCCN1CCN(CCOCc2ccccc2)CC1)C(O)(c1ccccc1)c1ccccc1`, with inactive: -34.4%.
In the case of `CCOC(=O)c1ccc(NP(C)(=O)Oc2ccc(F)cc2)cc1` (centres undefined), the “activity change, negative = inhibition” value was inactive: 1.23%.
The same measure, in the same setting: then `COc1ccc(OP(C)(=O)Nc2ccc(SC(F)(F)F)cc2)cc1` (centres undefined), with inactive: -0.627%.
As for `CP(=O)(Nc1ccccc1)Oc1ccc(F)cc1` (centres undefined), the “activity change, negative = inhibition” value was inactive: 10.1%.
Take `CCCCCOc1ccc(NP(C)(=O)Oc2ccc(Cl)cc2Cl)cc1` (centres undefined): the “activity change, negative = inhibition” value was inactive: -13.7%.
On the same count and under the same terms, then `CCN(CC)CCCOC(=O)C(O)(c1ccccc1)C1CCCCC1` (centres undefined), with inactive: 0.802%; and `CN(C)CCOC(=O)C(O)(c1ccccc1)C1CCCCC1` (centres undefined), with inactive: -2.26%; and `COc1ccc(NP(C)(=O)Oc2ccccc2OC)cc1` (centres undefined), with inactive: 13%.
Turning to `COc1ccc(OP(C)(=O)Nc2cccc(Br)c2)cc1` (centres undefined), the “activity change, negative = inhibition” value was inactive: -1.64%.
The same measure, in the same setting: then `O=[N+]([O-])c1ccc(OP2(=O)COCCO2)cc1` (centres undefined), with inactive: -0.347%.
For the compound `Cc1cc(-c2cccc3ccccc23)c(C)cn1.O=[N+]([O-])c1cc([N+](=O)[O-])c(O)c([N+](=O)[O-])c1`, the “activity change, negative = inhibition” value is inactive: -6.77%.
Same read-out and setting: as for `CCOP(C)(=S)SCC(=O)NC(C)(CC)C(=O)O` (centres undefined), the figure is inactive: -5.92%; as for `CP(=O)(Nc1ccc(SC(F)(F)F)cc1)Oc1ccc(F)cc1` (centres undefined), inactive: 4.61%.
Still for that read-out and setting: as for `Cc1ccccc1NP(C)(=O)Nc1ccccc1C`, the figure is inactive: -3.42%.
On the same count and under the same terms, then `CP(=O)(Nc1ccc2c(c1)OCCO2)Oc1ccccc1` (centres undefined), with inactive: -6.21%.
Take `CC1=C2N=C(C=C3N=C(C(C)=C4[N-][C@@](C)([C@@H]5N=C1[C@](C)(CCC(=O)NC[C@@H](C)OP(=O)([O-])O[C@H]1[C@@H](O)[C@@H](n6cnc7cc(C)c(C)cc76)O[C@@H]1CO)[C@H]5CC(N)=O)[C@@](C)(CC(N)=O)[C@@H]4CCC(N)=O)[C@@](C)(CC(N)=O)[C@@H]3CCC(N)=O)C(C)(C)[C@@H]2CCC(N)=O.[C-]#N.[Co+3]`: the Potency was active: 39.8 µM.
On to `CP(=O)(Nc1ccc(SC(F)(F)F)cc1)Oc1ccccc1` (centres undefined), for which the “activity change, negative = inhibition” value is inactive: 7.09%.
The same measure, in the same setting: then `CCCOc1ccc(NP(C)(=O)Oc2ccc(Cl)cc2)cc1` (centres undefined), with inactive: -24.8%.
On the same count and under the same terms, then `COc1ccccc1OP(C)(=O)Nc1c(C)cccc1C` (centres undefined), with inactive: 5.99%.
Same read-out and setting: then `CN1CCCCC1COC(=O)C1(O)c2ccccc2CCc2ccccc21` (centres undefined), with inactive: -2.53%.
With `CCOC(=O)c1ccc(NP(C)(=O)Oc2cc(C)cc(C)c2)cc1` (centres undefined), the “activity change, negative = inhibition” value was inactive: 8.91%.
On the same count and under the same terms, as for `Cc1cc(C)cc(OP(C)(=O)Nc2ccc(C)cc2C)c1` (centres undefined), the figure is inactive: 8.15%; as for `COc1ccccc1OP(C)(=O)Nc1cccc(Br)c1` (centres undefined), inactive: 3.18%; as for `Cc1ccc(C)c(NP(C)(=O)Oc2ccccc2)c1` (centres undefined), inactive: 9.91%.
The same measure, in the same setting: then `CP(=O)(Nc1cccc(Br)c1)Oc1ccccc1` (centres undefined), with inactive: -25.8%.
Still for that read-out and setting: then `Cc1cc(C)cc(OP(C)(=O)Nc2ccccn2)c1` (centres undefined), with inactive: 6.49%; and `CCN(CC)CCCOC(=O)C(O)(c1ccccc1)c1ccccc1`, with inactive: -4.44%.
On to `O=[N+]([O-])c1ccc2c(c1)C=Nc1ccccc1O2`, for which the Potency was active: 35.5 µM.
Regarding `Cc1cccc(C)c1OP(C)(N)=O` (centres undefined), the “activity change, negative = inhibition” value is inactive: -0.0303%.
Still for that read-out and setting: then `CC(C)(C)c1ccc(OP(C)(=O)Nc2ccc(SC(F)(F)F)cc2)cc1` (centres undefined), with inactive: 13.8%; and `Cc1cc(C)cc(OP(C)(N)=O)c1` (centres undefined), with inactive: -33.9%.
In the case of `COc1ccc(OP(C)(=O)Nc2cccc(F)c2)cc1` (centres undefined), the “activity change, negative = inhibition” value is inactive: -3.37%.
For the compound `COc1ccccc1OP(C)(=O)Nc1cc(Cl)ccc1C` (centres undefined), the “activity change, negative = inhibition” value is inactive: -1.3%.
The same measure, in the same setting: then `Cc1ccc(NP(C)(=O)Oc2ccccc2)c(C)c1` (centres undefined), with inactive: -0.737%; and `COc1ccccc1OP(C)(=O)Nc1ccc(C)cc1` (centres undefined), with inactive: 1.89%.
Same read-out and setting: then `CCOC(=O)c1ccc(NP(C)(=O)Oc2ccccc2)cc1` (centres undefined), with inactive: 3.84%; and `CP(=O)(Nc1ccccc1Br)Oc1ccccc1` (centres undefined), with inactive: 0.877%.
Same read-out and setting: as for `COc1ccccc1OP(C)(=O)Nc1ccccc1` (centres undefined), the figure is inactive: 2.16%; as for `CP(=S)(Nn1cnnc1)Oc1ccccc1` (centres undefined), inactive: 6.91%; as for `Cc1cc(C)cc(OP(C)(=O)Nc2ccc(SC(F)(F)F)cc2)c1` (centres undefined), inactive: 4.21%.
On to `CCc1ccc(OP(C)(=O)N2CCN(c3ccc([N+](=O)[O-])cc3)CC2)cc1` (centres undefined), for which the “activity change, negative = inhibition” value is inactive: -23.5%.
The same measure, in the same setting: as for `CP(=O)(NC(=O)Nc1ccccc1)Oc1ccccc1` (centres undefined), the figure is inactive: 11%; as for `CP(=O)(Oc1ccccc1)OC(c1ccccc1)C(F)(F)F` (centres undefined), inactive: 1.19%.
On the same count and under the same terms, as for `Cc1cccc(C)c1OP(C)(=O)Nc1ccc(SC(F)(F)F)cc1` (centres undefined), the figure is inactive: -1.59%; as for `CP(=O)(Nc1ccc(SC(F)(F)F)cc1)Oc1ccc(Cl)cc1` (centres undefined), inactive: 1.4%.
The same measure, in the same setting: as for `CP(=O)(Nc1ccccn1)Oc1ccc(Cl)cc1` (centres undefined), the figure is inactive: -20.2%; as for `CCOC(=O)c1ccc(NP(C)(=O)Oc2ccc(OC)cc2)cc1` (centres undefined), inactive: 5.24%.
For `CCOP(C)(=S)SCC(=O)NC(C)C(=O)O` (centres undefined), the “activity change, negative = inhibition” value was inactive: -0.754%.
